Test results from PubChem BioAssay AID687001 (Broad Institute, 2013).
The entries are a selection whose mix differs from that of the whole data set. Entries with a potency or affinity are not part of this list. The source made the active and inactive calls.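 How the source made its calls: active means signal-lowering compounds whose fitted half-maximal concentration is at or below twice the top tested dose in every run; inconclusive means runs disagree, flat 30 to 70% inhibition, or poor curve fit; inactive means the rest.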

Sequences of proteins named here, by UniProt entry; tags and fusion partners are left off. A change or cut given only in a name is not applied to a line headed by its entry.
UniProt P26447: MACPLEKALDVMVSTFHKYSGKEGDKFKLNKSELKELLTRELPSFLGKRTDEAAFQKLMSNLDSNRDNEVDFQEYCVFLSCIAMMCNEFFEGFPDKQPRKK

Biological target: Protein S100-A4 (Homo sapiens) (UniProt P26447)
Test: human S100A4 peptide interaction inhibition curves – biochemical, fluorescence polarization, cherry-picked hits, dose response (AID 687001);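 further: 0% = DMSO neutral control wells and -100% = TFP positive control wells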
Details: FP, S100A4/TAMRA-myosin IIA peptide binding; at 11 µM (top of the series)

SMILES	activity change, negative = inhibition
CN(C(=O)Cc1ccccc1)C1CC[C@@]2(CCCO2)C[C@@H]1N1CCCC1 (stereo partly drawn)	inactive: -0.381%
CN(C)P(=O)(N(C)C)n1c(Nc2ccccc2)nnc1-c1ccccc1	inactive: -1.17%
Cc1ccc(S(=O)(=O)N(CCCN)CCCc2c(C)nc(N)[nH]c2=O)cc1	inactive: -2.75%
